Test results reported in patent US20240239814A1, “Complexes Of CU(I) As Antitumor Agents” (priority 2021, published 2024).

Tested on: panel of human tumor cell lines
Assay: Average cytotoxic activity over the cell panel (MTT) compared with reference drugs
Details: on average over the cell panel
Protocol: Briefly, depending upon the growth characteristics of the cell line, 3-8×10^3 cells well^−1, were seeded in 96-well microplates in growth medium (100 μL) and then incubated at 37° C. in a 5% carbon dioxide atmosphere. After 24 h, the medium was removed and replaced with a fresh one containing the compound to be studied, at the appropriate concentration, dissolved in 0.9% sodium chloride solution just before use. Triplicate cultures were established for each treatment. After 72 h, each well was treated with 10 μL of a 5 mg mL^−1 MTT saline solution and, after 5 h of incubation, 100 μL of a sodium dodecylsulfate (SDS) solution in 0.01 M HCl were added. After an overnight incubation, the inhibition of cell growth induced by the tested complexes was determined by measuring the absorbance of each well at 570 nm using a Bio-Rad 680 microplate reader. Mean absorbance for each drug dose was expressed as percentage of the control and plotted vs. drug concentration. Dose-response curves were fitted and IC50 values were calculated with four parameter logistic model (4PL).
The cytotoxicity was evaluated by means of the MTT test for 72 h treatment with increasing concentrations of the tested compounds.
Cytotoxic activity was examined against a panel of human tumor cell lines. […] The growth inhibitory effect was evaluated by means of MTT test. […] SD=standard deviation, -=not detected.

## Bis[tris(phenylphosphine)] copper(I) nitrate [Compound 1]
Times more effective than cisplatin
  average cytotoxic activity relative to cisplatin: 3.9 times
Times more effective than oxaliplatin
  average cytotoxic activity relative to oxaliplatin: 3.1 times
